# Test results from ChEMBL document CHEMBL1148908, “Biscoumarin derivatives from Edgeworthia gardneri that inhibit the lyase activity of DNA polymerase beta” (J Nat Prod, 2004).
# Molecular target: DNA polymerase beta (Rattus norvegicus, UniProt P06766)
# Experiment: Inhibition of lyase activity of rat DNA polymerase beta after 30 mins
smiles,measurement,value
O=c1ccc2ccc(Oc3cc4ccc(O)cc4oc3=O)cc2o1 [EDGEWORIN],IC50,22.5 µM
